{"source": "patent US20250064789A1", "about": "“KETOAMIDE DERIVATIVES AND PHARMACEUTICAL USES THEREOF” (priority 2022, published 2025)", "assay": "Preliminary evaluation of in vivo safety (acute and general toxicity test)", "settings": "mouse", "data": [{"smiles": "COC[C@@H](NC(=O)C1CCCC(F)(F)C1)C(=O)N[C@H](Cc1ccccc1)C(=O)C(=O)NCc1nccs1", "note": "(stereo partly drawn) [Compound 398, N—((R)-1-(((R)-3,4-dioxo-1-phenyl-4-((thiazole-2-ylmethyl)amino)butan-2-yl)amino)-3-methoxy-1-oxopropan-2-yl)-3,3-difluorocyclohexane-1-formamide]", "values": [{"measurement": "in vivo safety (in words)", "value": "good in vivo safety"}]}]}
